Target: T1, human natriuretic peptide receptor 2 (hNPR2) (Homo sapiens, UniProt P20594)
T1 construct: expressed in transfected cells; host or cells: HEK293 (ATCC CRL-1573), clone 35, co-transfected with pGloSensor-42F
T1 sequence (P20594 23-1047): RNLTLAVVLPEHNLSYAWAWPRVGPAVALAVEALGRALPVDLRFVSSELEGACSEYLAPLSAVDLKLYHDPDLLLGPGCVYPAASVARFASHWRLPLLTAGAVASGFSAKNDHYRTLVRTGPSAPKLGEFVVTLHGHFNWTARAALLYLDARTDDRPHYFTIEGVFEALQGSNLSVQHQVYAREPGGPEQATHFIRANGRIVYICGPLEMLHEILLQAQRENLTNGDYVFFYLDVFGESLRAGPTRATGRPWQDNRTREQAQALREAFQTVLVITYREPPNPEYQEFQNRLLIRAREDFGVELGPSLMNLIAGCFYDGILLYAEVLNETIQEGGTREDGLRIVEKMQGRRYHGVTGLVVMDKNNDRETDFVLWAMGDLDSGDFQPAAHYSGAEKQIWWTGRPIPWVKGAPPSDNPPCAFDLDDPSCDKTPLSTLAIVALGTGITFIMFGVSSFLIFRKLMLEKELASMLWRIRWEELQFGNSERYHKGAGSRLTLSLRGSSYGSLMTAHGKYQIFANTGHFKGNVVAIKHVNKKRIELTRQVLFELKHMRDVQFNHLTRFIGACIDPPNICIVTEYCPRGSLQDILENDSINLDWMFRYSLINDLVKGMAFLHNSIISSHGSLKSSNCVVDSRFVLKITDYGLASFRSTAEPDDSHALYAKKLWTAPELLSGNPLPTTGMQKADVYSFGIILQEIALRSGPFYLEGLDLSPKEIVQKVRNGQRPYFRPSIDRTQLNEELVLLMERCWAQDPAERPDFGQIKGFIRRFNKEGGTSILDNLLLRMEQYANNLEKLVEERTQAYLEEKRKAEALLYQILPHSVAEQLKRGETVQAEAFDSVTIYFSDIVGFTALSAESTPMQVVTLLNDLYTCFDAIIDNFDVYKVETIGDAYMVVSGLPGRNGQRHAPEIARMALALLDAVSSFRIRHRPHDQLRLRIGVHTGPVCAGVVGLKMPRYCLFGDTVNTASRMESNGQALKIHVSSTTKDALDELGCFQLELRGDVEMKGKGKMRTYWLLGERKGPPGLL
Assay: In vitro hNPR2 activity assay (cGMP GloSensor reporter, HEK293)
Assay type: cell-based
Conditions: potency relative to CNP22 (0065)
Experimental: To evaluate the in vitro activity of CNP22 (0065; Chem. 1) and CNP compounds of the invention, they were tested for their ability to induce production of cyclic guanosine monophosphate (cGMP) in reporter cells expressing the human natriuretic peptide receptor 2 (hNPR2).
Cell culture: To produce the reporter cell line, HEK293 (ATCC® CRL-1573™) cells were stably transfected with the pGloSensor-42F reporter plasmid (GloSensor cGMP reporter—luciferase, Promega) and an expression plasmid encoding the hNPR2 receptor. A single cell clone was isolated for the reporter cell line. When reporter cells are exposed to an hNPR2 activating compound, hNPR2 cause production of cGMP. […] Active GloSensor luciferase is able to convert luciferin to oxyluciferin, a process that produces bioluminescence. Upon cell lysis and supply of luciferase substrate, luciferase activity can be quantified by detection of luminescence. Therefore, addition of an hNPR2 activating compound and subsequent addition of detection reagent to reporter cells causes generation of luminescence in a dose dependent manner. […] This measure, also referred to as in vitro potency, is reported for all compounds tested. In all the in vitro activity experiments, CNP22 was used as a positive in-plate control for hNPR2 activation. To reduce inter-assay variation, we also report the potency of each compound relative to the potency of the CNP22 control on each plate.
Procedure: HEK293-hNPR2/GloSensor clone 35 cells were continuously cultured in selection medium (DMEM containing 10% FCS, 1% P/S, 200 μg/mL G418 and 100 μg/mL hygromycin). To perform the assay, cells were detached with TrypLE Express (Gibco #12604013), put through a 70 μm cell strainer, counted and seeded in 30 μL/well assay medium (DMEM without phenol red and with 1% P/S) at 10,000 cells/well in white 384-well plates (Perkin Elmer #6007680) overnight. The following day, test compounds were serial diluted in dilution medium (DMEM without phenol red containing 1% OVA (Sigma #A5505 lot 04M7001V), 0.01% Tween20 (Roche #33766700) and 1% P/S) and 10 μL/well of diluted test compounds were subsequently added to the cells. For each compound, ten different concentrations in the range 0.25 μM-10 μM were tested. After 30 min of incubation at 37° C. and 5% CO2, 40 μL/well Bright-Glo detection reagent (Promega #E2650) was added. […] To determine the in vitro potency or EC50 of each test compound, a four parameter logistic regression was done on the raw data for each test compound using the Python package SciPy optimize. The average EC50 values are listed as “hNPR2 0% HSA. [EC50 (nM)]” in Table 2. A relative potency was calculated by the following expression: EC50 (CNP22 in-plate control)/EC50 (test compound)*100, shown as “hNPR2 0% HSA. [EC50% rel CNP]” in Table 2. A minimum of two replicates was measured for each test compound.

Question: With CCCC[C@@H]1NC(=O)[C@H](CO)NC(=O)CNC(=O)[C@H]([C@@H](C)CC)NC(=O)[C@H](CCCNC(=N)N)NC(=O)[C@H](CC(=O)O)NC(=O)[C@H](CC(C)C)NC(=O)[C@H](CCCCN)NC(=O)[C@H](CC(C)C)NC(=O)CNC(=O)[C@H](Cc2ccccc2)NC(=O)[C@@H](NC(=O)CNC(=O)[C@H](CCCCN)NC(=O)[C@H](CO)NC(=O)[C@H](CC(C)C)NC(=O)CNC(=O)[C@H](CCCCN)NC(=O)[C@H](CCCCN)NC(=O)[C@H](CCC(N)=O)NC(=O)[C@H](C)NC(=O)CNC(=O)[C@H](CCCCN)NC(=O)[C@H](Cc2ccc(O)cc2)NC(=O)[C@H](CCCCN)NC(=O)[C@H](CCCNC(=N)N)NC(=O)[C@H](C)NC(=O)[C@H](CCC(N)=O)NC(=O)COCCOCCNC(=O)COCCOCCNC(=O)CC[C@H](NC(=O)CCCCCCCCCCCCCCCCC(=O)O)C(=O)O)CSSC[C@@H](C(=O)O)NC(=O)CNC(=O)[C@H](CC(C)C)NC(=O)CNC(=O)[C@H](CO)NC1=O [compound 0312] as the molecule, how does the “hNPR2 0% HSA. [EC50% rel CNP]” value read?
Answer: Its value is 80.0%.

Reference: patent publication US20240209028A1, “CNP COMPOUNDS” (priority 2022, published 2024)
